Results on one compound are retold here after patent US9487749B2 (priority 2009, dated 2016).

One data set deals with pasture grass mix. Particulars: in vivo.
Data set [1] deals with Lactobacillus acidophilus. As to the kind of experiment: Growth of Lactobacillus acidophilus in Acidophilus milk fortified with MSM. Type of data set: cell-based. Conditions: 5.0% MSM, Day 28. The text has this:
31, 2013. […] The Acidophilus milk was low fat (Darigold).

Turning to `CS(C)(=O)=O` [MSM, Methylsulfonylmethane], the “Protein Solubility” value with pasture grass mix is 59.52%. Further, the “log growth lower than control” value in data set [1] was 1.48 logs.
